# Values quoted from earlier work as cited in patent US20230184643A1, “METHOD FOR MEASURING OR IDENTIFYING A COMPONENT OF INTEREST IN SPECIMENS” (SHIMADZU CORPORATION, priority 2020, published 2023).
# Where two headings read alike, the source gives them in different places. Only a part of the results on these compounds is given; other tests are left out.
smiles,measurement,setting,value
CCC(=O)N(c1ccccc1)C1CCN(CCc2ccccc2)CC1,LogP,"Table 2.1, retrieved from Drug bank, accessed April 2020",4.05
same,LogP,"Table S1, source not given",4.05
